# Assay results published in ChEMBL document CHEMBL3400036, “Novel 4-substituted-N,N-dimethyltetrahydronaphthalen-2-amines: synthesis, affinity, and in silico docking studies at serotonin 5-HT2-type and histamine H1 G protein-coupled receptors” (Bioorg Med Chem, 2015).
# Protein sequences, listed by entry. Tags and fused reporters are not part of them. Lines headed by an entry give the natural chain unless they say otherwise; changes in a name come on top.
# UniProt P28335: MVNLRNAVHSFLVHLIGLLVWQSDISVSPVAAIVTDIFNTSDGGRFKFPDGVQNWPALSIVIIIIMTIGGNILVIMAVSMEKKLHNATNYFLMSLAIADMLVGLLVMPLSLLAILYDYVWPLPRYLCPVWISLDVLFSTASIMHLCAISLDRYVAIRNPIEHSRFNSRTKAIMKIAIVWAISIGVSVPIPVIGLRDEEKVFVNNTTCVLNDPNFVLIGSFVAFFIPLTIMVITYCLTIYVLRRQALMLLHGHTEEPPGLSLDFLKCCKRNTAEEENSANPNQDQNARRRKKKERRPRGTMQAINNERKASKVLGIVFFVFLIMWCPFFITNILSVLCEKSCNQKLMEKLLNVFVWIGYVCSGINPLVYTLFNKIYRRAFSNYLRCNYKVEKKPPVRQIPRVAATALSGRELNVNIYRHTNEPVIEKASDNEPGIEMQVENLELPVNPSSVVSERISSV
# UniProt P28223, whole entry: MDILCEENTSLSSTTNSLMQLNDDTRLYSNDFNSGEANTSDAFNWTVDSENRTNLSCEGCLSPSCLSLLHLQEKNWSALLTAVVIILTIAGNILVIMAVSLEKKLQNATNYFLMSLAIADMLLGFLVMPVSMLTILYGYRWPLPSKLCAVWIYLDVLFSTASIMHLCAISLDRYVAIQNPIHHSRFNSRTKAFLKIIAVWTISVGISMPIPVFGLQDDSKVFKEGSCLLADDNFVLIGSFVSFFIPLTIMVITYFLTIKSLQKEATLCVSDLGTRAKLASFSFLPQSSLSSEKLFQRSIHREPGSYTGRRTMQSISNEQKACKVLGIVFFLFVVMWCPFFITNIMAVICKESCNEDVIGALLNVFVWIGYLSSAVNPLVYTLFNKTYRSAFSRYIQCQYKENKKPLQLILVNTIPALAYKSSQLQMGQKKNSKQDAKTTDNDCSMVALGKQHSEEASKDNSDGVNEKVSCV
# Columns and labels:
# [1] = biological target: 5-hydroxytryptamine receptor 2C (Homo sapiens, UniProt P28335); assay: Displacement of [3H]Mesulergine from human 5-HT2C-INI receptor expressed in HEK293 cells by scintillation counting analysis; format: cell-based
# [2] = biological target: 5-hydroxytryptamine receptor 2A (Homo sapiens, UniProt P28223); assay: Displacement of [3H]Ketanserin from human 5-HT2A receptor expressed in HEK293 cells by scintillation counting analysis; format: cell-based
SMILES,Ki [1] [µM],Ki [2] [µM]
CN(C)[C@@H]1Cc2ccccc2[C@@H](C2CCCCCCC2)C1,0.03,–
CN(C)[C@@H]1Cc2ccccc2[C@@H](c2cccc(-c3ccccc3)c2)C1,–,0.044
